Experimental data as given in ChEMBL document CHEMBL1135791, “Lysergamides of isomeric 2,4-dimethylazetidines map the binding orientation of the diethylamide moiety in the potent hallucinogenic agent N,N-diethyllysergamide (LSD)” (J Med Chem, 2002).

Amino acid sequences for entries named in this document (tags omitted).
UniProt P21917, whole entry: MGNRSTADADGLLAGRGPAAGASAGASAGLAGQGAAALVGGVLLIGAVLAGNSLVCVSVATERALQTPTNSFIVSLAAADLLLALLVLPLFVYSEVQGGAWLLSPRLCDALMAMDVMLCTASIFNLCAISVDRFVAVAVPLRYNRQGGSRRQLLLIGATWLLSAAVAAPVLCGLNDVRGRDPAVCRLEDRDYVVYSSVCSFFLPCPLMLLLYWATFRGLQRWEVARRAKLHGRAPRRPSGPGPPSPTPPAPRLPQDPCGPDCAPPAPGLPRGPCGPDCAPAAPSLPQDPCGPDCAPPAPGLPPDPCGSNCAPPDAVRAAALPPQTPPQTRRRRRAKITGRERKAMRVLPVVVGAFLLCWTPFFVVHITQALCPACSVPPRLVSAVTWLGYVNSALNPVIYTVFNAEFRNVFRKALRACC

Experiments:
D(4) dopamine receptor [1] = biological target: T1, D(4) dopamine receptor (Homo sapiens, UniProt P21917); assay: Binding affinity towards Dopamine receptor D4
D(4) dopamine receptor [2] = biological target: T1, D(4) dopamine receptor; assay: Binding affinity against Dopamine receptor D4

| SMILES | Ki (D(4) dopamine receptor [1]) | Ki (D(4) dopamine receptor [2]) |
| --- | --- | --- |
| C[C@@H]1C[C@@H](C)N1C(=O)[C@@H]1C=C2c3cccc4[nH]cc(c34)CC2N(C)C1 (stereo partly drawn) | 72 nM | – |
| C[C@H]1C[C@H](C)N1C(=O)[C@@H]1C=C2c3cccc4[nH]cc(c34)CC2N(C)C1 (stereo partly drawn) | 36 nM | – |
| C[C@@H]1C[C@H](C)N1C(=O)[C@@H]1C=C2c3cccc4[nH]cc(c34)CC2N(C)C1 (stereo partly drawn) | – | 18 nM |
